In BindingDB's records for doi:10.1021/acsmedchemlett.7b00293 (Novartis Institutes For Biomedical Research, 2017):

Columns and labels:
[1] = Inhibition of PI3Kdelta in anti-CD3 stimulated human PBMC assessed as reduction in cell proliferation by measuring [3H]thymidine incorporation pretreated for 1 hr followed by anti-CD3 addition measured last 16 hrs of 56 hrs incubation by beta counting method
[2] = Inhibition of PI3Kdelta in human PBMC assessed as reduction in cell proliferation by measuring [3H]thymidine incorporation measured last 16 hrs of 4 days incubation by beta counting based mixed lymphocyte reaction assay
[3] = Inhibition of PI3Kdelta in anti-CD3/CD28 stimulated human PBMC derived CD4-positive T cells assessed as reduction in cell proliferation by measuring [3H]thymidine incorporation by beta counting method

## CCC(=O)N1CC[C@H](Nc2ncnc3c2CN(c2cnc(OC)c(C(F)(F)F)c2)CC3)C1 [US8653092, 67]
[1]
  pIC50: 6.80
[2]
  pIC50: 7.10
[3]
  pIC50: 5.94

pIC50: −log10 of the molar value.
